The IC50 is the concentration that inhibits the measured activity by half.

Amino acid sequences for entries named in this document (tags omitted). Residues count along the entry.
UniProt P04049, whole entry Y340D/Y341D: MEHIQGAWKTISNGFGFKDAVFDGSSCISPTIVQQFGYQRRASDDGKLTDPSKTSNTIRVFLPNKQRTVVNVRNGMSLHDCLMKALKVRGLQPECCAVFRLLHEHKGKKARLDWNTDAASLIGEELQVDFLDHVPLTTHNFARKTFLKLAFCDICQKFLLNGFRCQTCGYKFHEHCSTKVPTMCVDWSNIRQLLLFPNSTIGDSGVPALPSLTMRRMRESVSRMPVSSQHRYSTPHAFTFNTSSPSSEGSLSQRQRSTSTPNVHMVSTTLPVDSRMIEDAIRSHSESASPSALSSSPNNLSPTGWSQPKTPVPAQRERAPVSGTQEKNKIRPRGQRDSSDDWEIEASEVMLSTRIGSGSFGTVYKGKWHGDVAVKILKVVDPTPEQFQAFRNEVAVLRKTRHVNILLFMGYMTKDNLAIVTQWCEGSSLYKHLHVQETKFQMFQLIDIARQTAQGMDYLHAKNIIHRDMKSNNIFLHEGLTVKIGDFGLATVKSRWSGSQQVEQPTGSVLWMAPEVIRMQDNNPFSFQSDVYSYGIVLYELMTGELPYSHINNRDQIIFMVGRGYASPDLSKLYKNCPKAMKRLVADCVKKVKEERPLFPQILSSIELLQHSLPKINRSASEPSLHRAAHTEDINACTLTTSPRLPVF
UniProt P15056, 2-766 V600E limits assumed: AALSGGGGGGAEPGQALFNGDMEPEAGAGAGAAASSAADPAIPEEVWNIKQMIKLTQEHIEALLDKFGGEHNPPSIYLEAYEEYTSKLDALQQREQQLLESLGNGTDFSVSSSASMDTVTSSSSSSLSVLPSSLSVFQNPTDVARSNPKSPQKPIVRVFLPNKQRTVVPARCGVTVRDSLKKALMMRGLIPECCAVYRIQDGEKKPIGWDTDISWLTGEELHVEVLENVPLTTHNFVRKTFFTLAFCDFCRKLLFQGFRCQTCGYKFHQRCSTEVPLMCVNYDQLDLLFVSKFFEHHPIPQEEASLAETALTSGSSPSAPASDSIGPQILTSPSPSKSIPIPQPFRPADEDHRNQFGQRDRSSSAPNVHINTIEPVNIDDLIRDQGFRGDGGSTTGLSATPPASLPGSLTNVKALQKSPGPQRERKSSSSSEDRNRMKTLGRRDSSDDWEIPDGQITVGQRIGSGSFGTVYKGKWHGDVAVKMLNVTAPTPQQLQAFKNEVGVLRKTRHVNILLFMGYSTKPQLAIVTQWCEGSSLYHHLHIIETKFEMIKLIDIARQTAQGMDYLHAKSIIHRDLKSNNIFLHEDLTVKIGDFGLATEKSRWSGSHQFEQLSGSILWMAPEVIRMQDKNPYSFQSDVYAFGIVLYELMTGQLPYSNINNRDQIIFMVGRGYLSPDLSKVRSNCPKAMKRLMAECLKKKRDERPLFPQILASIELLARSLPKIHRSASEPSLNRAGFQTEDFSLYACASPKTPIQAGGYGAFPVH

Structures are written as SMILES.

Assay [1] deals with RAF proto-oncogene serine/threonine-protein kinase (Homo sapiens, UniProt P04049, Y340D/Y341D). Put plainly: (§1) Raf IC50 Assay: Compounds disclosed herein were tested against B-Raf (V600E) (PV3849, from Invitrogen) or C-Raf (Y340D/Y341D) (PV3805, from Invitrogen) in a time-resolved fluorescence energy transfer assay. The assay was carried out in reactions (10 uL) containing 0.0625 nM B-Raf or 0.5 nM C-Raf, 25 mM Tris pH7.4, 10 mM MgCl2, 0.5 mM EGTA, 0.5 mM […], 5 mM beta-glycerophosphate, 0.01% Triton X-100, 2.5 mM DTT, 0.1% BSA, 0.1 mM ATP, 13.7 nM GST-tagged MEK1 (Full-length protein with K97R mutation, recombinant protein purified from bacterial expression system) and 0-5 uM compounds disclosed herein (final concentration of 1% DMSO). The enzyme was incubated with the compounds at room temperature for 60 minutes and the reactions were initiated by the addition of ATP and GST-MEK1. After incubating at room temperature for 60 minutes, an equal volume of stop buffer containing 25 mM Tris pH7.4, 400 mM KF, 50 mM EDTA, 0.01% BSA, 0.01% Triton X-100, 1 test of Eu3+ Cryptate-conjugated rabbit polyclonal antibody anti-Phospho MEK1/2 (Ser217/221) and 1 test of d2-conjugated mouse monoclonal antibody anti-glutathione S-transferase was added to stop the reactions. Plates were sealed and incubated at room temperature for 2 hours, and then the TR-FRET signals were read on BMG PHERAstar FS instrument. The IC50 for each compound was calculated by non linear regression by Graphpad Prism software.

Assay [2] addresses Serine/threonine-protein kinase B-raf (Homo sapiens, UniProt P15056, V600E). The assay is described as §1.

With `O=C1CCc2c(Oc3ccc4c(c3)C3C(O4)C3c3nc4cc(Cl)c(Cl)cc4[nH]3)ccnc2N1` (racemic), the IC50 in assay [1] was 4.9 nM.
Regarding `O=C1CCc2c(Oc3ccc4c(c3)C3C(O4)C3c3nc4cc(Cl)c(C(F)(F)F)cc4[nH]3)ccnc2N1` (racemic), in assay [2], the IC50 was 19 nM.

Values taken from ChEMBL document CHEMBL3886567, “Fused tricyclic compounds as Raf kinase inhibitors” (2016).
